AlphaSeq binding of Ab-14 light chain variants to a spike HR2 peptide

Reference: Li et al. 2023, doi:10.1038/s41467-023-39022-2. File: FLAb, binding data.

The target is the same throughout: PDVDLGDISGINAS, from the HR2 region of SARS-CoV-2 spike.

The variants keep the heavy chain, the linker and the frameworks of Ab-14 (scFv order VH, the linker GGGGSGGGGSGGGGS, VL).
VH: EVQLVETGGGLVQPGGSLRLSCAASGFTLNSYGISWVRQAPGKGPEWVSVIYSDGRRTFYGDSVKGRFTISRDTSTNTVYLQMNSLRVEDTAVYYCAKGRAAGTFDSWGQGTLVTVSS
VL: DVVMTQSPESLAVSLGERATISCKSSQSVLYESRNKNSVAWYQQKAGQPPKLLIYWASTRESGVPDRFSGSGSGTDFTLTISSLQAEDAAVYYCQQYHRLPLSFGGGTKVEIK

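This is the validation round: designs drawn from the data on random variants, tested in the same kind of assay. Their group label is 14L_GP_Gen (GP: Gaussian process model; Gen: genetic algorithm; a sequence that several methods proposed may carry one label only). In AlphaSeq, yeast of one mating type display the scFv and yeast of the other type display the target. Mating (16 h, 30 °C) was followed by selection of diploids and sequencing of their barcodes. Scores were corrected for input abundance and mapped to Kd with protein pairs of known affinity run in the same pool. Each pool was mated in six replicate cultures.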

Changes read parent residue, position, new residue, counted from the first residue of the VL shown. Affinities are written as log10 Kd with Kd in nM; a lower number is a better binder. A pair that was not seen in that replicate is written "ND"; this usually means weak binding, but a binder can also be missed. The parent sequence was in this pool as ten entries: three were never detected, three once, and four in most replicates, with averages from 0.34 to 2.37. Three control strains display no target. For all light chain designs, 4% of the pairings with them gave a signal, with a median of 2.64 and one signal in twenty below 1.59, so weak values seen in few replicates may be background. The control count says in how many pairings with the empty strains this scFv gave a signal, with their mean in brackets. The range of this assay differs from that of the first round, and the authors advise against merging the two. The authors' rule: three or more of the six replicates give a measured affinity, fewer mean a poor binder.

changes | log10 Kd (nM) by replicate | empty controls
S25L V29W W56H | 0.04 / 0.06 / -0.28 / -0.27 / -0.21 / 0.19 | 0/18
S25L V29M W56N Q96S | 0.21 / 0.12 / -0.12 / -0.02 / -0.05 / 0.29 | 2/18 (3.37)
S25L Q27C V29E W56E | 0.22 / 0.16 / 0.02 / 0.10 / -0.10 / 0.12 | 0/18
S25L S26P W56N S62V | -0.03 / -0.27 / -0.28 / -0.43 / -0.19 / -0.08 | 3/18 (2.90)
S25L S28G W56N | -0.37 / -0.21 / -0.39 / -0.56 / -0.74 / -0.39 | 0/18
S25L W56N Q96D S103Y | 0.29 / 0.23 / 0.00 / 0.09 / 0.16 / 0.45 | 1/18 (3.15)
S25L S26Q V29Q W56D | -0.10 / -0.25 / -0.36 / -0.49 / -0.23 / 0.02 | 0/18
S25L K36S W56E S62D | 0.15 / 0.01 / -0.01 / -0.03 / -0.01 / 0.10 | 6/18 (3.08)
S25L S26E K36P W56N | 0.41 / -0.17 / -0.17 / -0.06 / 0.02 / -0.06 | 0/18
V29W K36F W56N | 0.00 / 0.09 / 0.00 / -0.13 / 0.01 / 0.15 | 0/18
S25V L30D W56N | -0.12 / -0.22 / -0.43 / -0.43 / -0.18 / -0.17 | 4/18 (2.88)
S25L Q27G V29M W56E | -0.03 / -0.30 / -0.33 / -0.29 / -0.12 / -0.15 | 2/18 (4.06)
S25F S26E V29W W56N T59Q E61L | -0.13 / -0.21 / -0.29 / -0.35 / -0.20 / -0.09 | 2/18 (2.70)
S25L V29W L30P W56N | 0.12 / 0.11 / 0.07 / -0.05 / -0.06 / 0.25 | 2/18 (2.96)
S25V V29H W56G | -0.09 / -0.43 / -0.28 / -0.46 / -0.35 / -0.21 | 2/18 (2.60)
S25L S26E V29W L30G W56N | -0.20 / -0.36 / -0.43 / -0.41 / -0.31 / -0.33 | 1/18 (2.77)
S25L S26Q L30E S38N W56N | -0.41 / -0.44 / -0.49 / -0.54 / -0.48 / -0.31 | 2/18 (2.11)
S25L V29W K36T W56N T59Q | 0.29 / 0.07 / -0.02 / -0.13 / 0.01 / 0.30 | 1/18 (2.20)
S25L V29E W56N E61M S62M | 0.04 / 0.04 / 0.05 / -0.11 / -0.14 / 0.17 | 1/18 (4.35)
S25V V29A W56N T59Q | 0.32 / 0.36 / 0.12 / 0.05 / 0.17 / 0.30 | 2/18 (2.50)
S25L V29E W56N T59Q E61L Q96D | 0.27 / 0.18 / 0.01 / -0.05 / 0.01 / 0.28 | 2/18 (2.70)
S25L L30M W56N | 0.00 / -0.06 / -0.22 / -0.23 / -0.27 / -0.04 | 3/18 (2.78)
S25L S26Q N35M W56N | 0.22 / -0.06 / 0.02 / -0.09 / -0.04 / 0.36 | 2/18 (3.35)
S25V S26Q L30P W56N | 0.47 / 0.28 / 0.22 / 0.76 / 0.22 / 0.74 | 0/18
S25L V29L W56N | 0.26 / 0.18 / 0.03 / -0.31 / 0.01 / -0.04 | 2/18 (3.59)
S25F S26E V29M W56N T59Q | 0.12 / 0.52 / 0.13 / 0.01 / 0.04 / 0.33 | 2/18 (2.67)
S25L W56N T59Q S62R | -0.78 / -0.90 / -1.81 / -0.76 / -1.07 / -0.81 | 0/18
S25L Q27G W56G E61L | -0.13 / -0.37 / -0.40 / -0.28 / -0.24 / -0.29 | 0/18
S25L V29A W56D | -0.26 / -0.57 / -0.53 / -1.01 / -0.33 / -0.61 | 1/18 (3.05)
S25L S26P V29Q W56S | -0.02 / 0.14 / 0.00 / 0.25 / -0.01 / 0.25 | 0/18
S25L N35Q W56G | 2.20 / ND / 2.00 / ND / ND / ND | 0/18
S25V V29F S33E W56N | 0.06 / -0.10 / -0.16 / -0.18 / 0.00 / 0.06 | 2/18 (2.79)
S25L Q27M V29E W56E | -0.30 / -0.19 / -0.29 / -0.63 / -0.74 / -0.02 | 0/18
S25L S26Q V29E L30G W56N | -0.05 / 0.21 / -0.01 / -0.05 / -0.16 / 0.44 | 0/18
S25L V29N W56Q | -0.06 / -0.17 / -0.29 / -0.18 / -0.18 / -0.07 | 2/18 (3.30)
S25L K36S W56N E61S | ND / ND / ND / ND / ND / 1.03 | 0/18